# Measurements: patent US20240026032A1 (Alexion, published 2024)
# Biological target: the molecule itself
# Test: BLI (Octet), PD-1 Fc captured on anti-human Fc tips, PD-1 Fc as analyte
# Description: Final dissociation in PBS was performed in the last step on the Bio-Layer Interferometry (BLI) data.
protein,measurement,value
"Programmed Death 1 (PD-1) Fc chimera (R&D Systems, Catalog # 1086-PD-050) (Fc fusion, human, UniProt Q15116 25-167, looked up, Bought reagent; not shown: Fc part of the bought chimera (captured by anti-human Fc tips)) LDSPDRPWNPPTFSPALLVVTEGDNATFTCSFSNTSESFVLNWYRMSPSNQTDKLAAFPEDRSQPGQDCRFRVTQLPNGRDFHMSVVRARRNDSGTYLCGAISLAPKAQIKESLRAELRVTERRAEVPTAHPSPSPRPAGQFQ",binding result,no binding
